Assay results: patent US9963456B2, “Pyrrolopyrimidine compound or salt thereof and compositions containing the pyrrolopyrimidine compound or salt thereof” (TAIHO PHARMACEUTICAL CO., LTD., priority 2014, dated 2018)

Columns and labels:
[1] = target: carbonic anhydrase II (Homo sapiens (Human), UniProt P00918); test: Carbonic anhydrase II enzyme activity inhibition (4-NPA esterase activity); format: biochemical; conditions: 4-nitrophenyl acetate esterase activity, absorbance at 405 nm
[2] = test system: Human colon cancer HCT-116 cell lines; test: Antitumor effect on tumor cells transplanted into mice 2; format: in vivo
Excerpt: Human colon cancer HCT-116 cell lines were washed in PBS and suspended at a concentration of 4×10^7 cells/mL.
TV(mm3)=(length×width^2)/2, wherein the unit of length and width is mm (equation D).
When the TV reached 100 to 300 mm3, the animals were assigned to each group in accordance with a stratified randomization procedure. The day was considered day 1, the TV on the day was considered TV1, and the body weight on the day was considered BW1.
A required amount of the test compound was weighed to prepare an administration solution.

Compound	IC50 [1] [µM]	further results
Nc1ncnc2c1c(C#Cc1c(F)cccc1F)cn2[C@@H]1O[C@H](CNS(N)(=O)=O)[C@@H](O)[C@H]1O [Example 1, 4-Amino-5-[2-(2,6-difluorophenyl)ethynyl]-7-[(2R,3R,4S,5R)-3,4-dihydroxy-5-[(sulfamoylamino)methyl]tetrahydrofuran-2-yl]pyrrolo[2,3-d]pyrimidine]	> 1	
CCOc1cc(F)cc(F)c1C#Cc1cn([C@@H]2O[C@H](CNS(N)(=O)=O)[C@@H](O)[C@H]2O)c2ncnc(N)c12 [Example 35, 4-Amino-7-[(2R,3R,4S,5R)-3,4-dihydroxy-5-[(sulfamoylamino)methyl]tetrahydrofuran-2-yl]-5-[2-(2-ethoxy-4,6-difluoro-phenyl)ethynyl]pyrrolo[2,3-d]pyrimidine]	> 1	
N#Cc1ccccc1C#Cc1cn([C@@H]2O[C@H](CNS(N)(=O)=O)[C@@H](O)[C@H]2O)c2ncnc(N)c12 [Example 49, 4-Amino-5-[2-(2-cyanophenyl)ethynyl]-7-[(2R,3R,4S,5R)-3,4-dihydroxy-5-[(sulfamoylamino)methyl]tetrahydrofuran-2-yl]pyrrolo[2,3-d]pyrimidine]	> 1	
CCOc1cccc(F)c1C#Cc1cn([C@@H]2O[C@H](CNS(N)(=O)=O)[C@@H](O)[C@H]2O)c2ncnc(N)c12 [Example 55, 4-Amino-7-[(2R,3R,4S,5R)-3,4-dihydroxy-5-[(sulfamoylamino)methyl]tetrahydrofuran-2-yl]-5-[2-(2-ethoxy-6-fluoro-phenyl)ethynyl]pyrrolo[2,3-d]pyrimidine]	> 1	T/C15 ([2]; HCT-116 xenograft in mice, 50 mg/kg/day intravenous, administration days 1, 4, 8, 11, day 15): 26%; change of the body weight compared with the control ([2]; HCT-116 xenograft mice): within an acceptable degree; RTV comparison with the Comparative Example ([2]; HCT-116 xenograft, hydrochloride compound of Example 55, Aspin-Welch's t-test): significantly lower than that of the Comparative Example; RTV15 comparison with the control ([2]; HCT-116 xenograft, hydrochloride compound of Example 55, Dunnett's test): significantly lower than that of the control; BWC15 Mean ± SD ([2]; body weight change rate, HCT-116 xenograft in mice, 50 mg/kg/day intravenous, days 1, 4, 8, 11, day 15): −11.0 ± 9.6%
Nc1ncnc2c1c(C#Cc1c(F)cccc1OCC1CC1)cn2[C@@H]1O[C@H](CNS(N)(=O)=O)[C@@H](O)[C@H]1O [Example 86, 4-Amino-5-[2-[2-(cyclopropylmethoxy)-6-fluoro-phenyl]ethynyl]-7-[(2R,3R,4S,5R)-3,4-dihydroxy-5-[(sulfamoylamino)methyl]tetrahydrofuran-2-yl]pyrrolo[2,3-d]pyrimidine]	> 1	
Nc1ncnc2c1c(C#Cc1ncccc1F)cn2[C@@H]1O[C@H](CNS(N)(=O)=O)[C@@H](O)[C@H]1O [Example 88, 4-Amino-7-[(2R,3R,4S,5R)-3,4-dihydroxy-5-[(sulfamoylamino)methyl]tetrahydrofuran-2-yl]-5-[2-(3-fluoro-2-pyridyl)ethynyl]pyrrolo[2,3-d]pyrimidine]	> 1	
CSc1cccc(F)c1C#Cc1cn([C@@H]2C[C@H](CNS(N)(=O)=O)[C@@H](O)[C@H]2O)c2ncnc(N)c12 [Example 98, 4-Amino-7-[(1R,2S,3R,4R)-2,3-dihydroxy-4-[(sulfamoylamino)methyl]cyclopentyl]-5-[2-(2-fluoro-6-methylsulfanyl-phenyl)ethynyl]pyrrolo[2,3-d]pyrimidine]	> 1	
CSc1cccc(F)c1C#Cc1cn([C@@H]2C=C(CNS(N)(=O)=O)[C@@H](O)[C@H]2O)c2ncnc(N)c12 [Example 130, 4-Amino-7-[(1R,4R,5S)-4,5-dihydroxy-3-[(sulfamoylamino)methyl]cyclopent-2-en-1-yl]-5-[2-(2-fluoro-6-methylsulfanyl-phenyl)ethynyl]pyrrolo[2,3-d]pyrimidine]	> 1	
Nc1ncnc2c1c(C#Cc1ccccc1)cn2[C@H]1C[C@H](O)[C@@H](COS(N)(=O)=O)O1 [Example 134, [(2R,3S,5R)-5-[4-Amino-5-(2-phenylethynyl)pyrrolo[2,3-d]pyrimidin-7-yl]-3-hydroxy-tetrahydrofuran-2-yl]methyl sulfamate]	> 1	
